Most compounds without a hit are left out; they make up all but 1.3% or so of the library.
hERG WT inh: qHTS for Inhibitors of KCHN2 3.1: Wildtype qHTS; Voltage-gated inwardly rectifying potassium channel KCNH2 (Homo sapiens), Q12809; U2OS, BacMam KCNH2, thallium flux FluxOr; hits give low values; activity change, % at 1.84 µM; 340,000 compounds, 0.37% hits;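 active = maximum activity change below -70%; inconclusive = maximum activity change between -70% and -50%; inactive = maximum activity change above -50%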
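U2OS cells were transduced with wild-type KCNH2 virus (2.03 x 10^8 / mL) for 4 h at room temperature, then cultured overnight at 37 C. Thallium flux was read with FluxOr dye. Rate constants were normalized to DMSO controls.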
Rango dissoc inh: qHTS Assay for Inhibitors of RanGTP induced Rango (Ran-regulated importin-beta cargo) - Importin beta complex dissociation | Snurportin-1 (Homo sapiens) + GTP-binding nuclear protein Ran (Homo sapiens) + Importin … | 340,000 compounds, 0.071% hits | Biochemical FRET Rango-importin beta, RanGTP-induced dissociation | Potency, µM (series often up to 46.1 µM); note: nearly all actives have a fitted effect of over 45% in size
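Compounds preincubate 5 min with complex of recombinant Rango and importin beta in PBS with 1 mM DTT. Ran (0.6 uM) loaded with 2 mM GTP plus 0.2 uM RCC1 starts dissociation; FRET is recorded 45 min later.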
Rango complex inh: qHTS Assay for Inhibitors of Rango (Ran-regulated importin-beta cargo) - Importin beta complex formation; Rango CFP/YFP FRET sensor + importin beta, 45 min; Potency, µM (top dose mostly 92.2 µM); 340,000 compounds, 0.031% hits; AID 540263, 2011; note: nearly all actives have a fitted effect of over 15% in size
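Inhibition scored from the CFP 486 nm/YFP 530 nm FRET ratio 45 min after adding 0.125 microM importin beta to 50 nM Rango biosensor preincubated 5 min with compound (room temperature, PBS with DTT, Tween-20, BSA). No-importin wells as positive control.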
KCNH2 3.1 block: qHTS for Inhibitors of KCHN2 3.1: Mutant qHTS. Potassium voltage-gated channel subfamily H member 2, brain isoform KCNH2 3.1 (human). U2OS KCNH2 3.1, thallium flux FluxOr; hits give low values. activity change, % (tested at about 1.8 µM). 340,000 compounds, 0.95% hits;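 active = maximum activity change below -70%; inconclusive = maximum activity change from -70% to -50%; inactive = maximum activity change above -50%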;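 note: thallium influx rate constant from kinetic fluorescence after stimulation buffer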
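Steps: virus added to U2OS suspension (4 h, RT, dark); medium with 10% FBS added, cells plated, 37 C overnight; FluxOr/Red40 loading buffer 45 min RT; stimulation buffer, 2 min kinetic read; rate constant normalized.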
Of the large screens only hits and unclear results are named; the others gave an inactive call; [ ] = remark or other dose. Unless noted, calls come from the whole dose curve.

COc1ccc(CCn2c(N)c(C#N)c3nc4ccccc4nc32)cc1OC	Rango dissoc inh inconclusive, Rango complex inh inconclusive (no result: KCNH2 3.1 block)
COc1ccc(Cn2c(N)c(C#N)c3nc4ccccc4nc32)cc1OC	Rango dissoc inh 12µM, Rango complex inh inconclusive
Fc1ccc(/C=C\c2nccc3c2[nH]c2ccccc23)cc1	Rango dissoc inh inconclusive, Rango complex inh inconclusive, KCNH2 3.1 block inconclusive
C(=C\c1nccc2c1[nH]c1ccccc12)/c1ccccc1	Rango dissoc inh 16µM, Rango complex inh inconclusive
CC(=O)N1CCN(C(=O)c2cccc(S(=O)(=O)Nc3c(C)n(C)n(-c4ccccc4)c3=O)c2)CC1	none
Clc1cccc(-c2cc3nc4c(c(NCc5ccco5)n3n2)CCCC4)c1	KCNH2 3.1 block -101
CC(=O)Nc1ccc(/C=N/NC(=O)c2cc3cc(C)ccc3nc2C)cc1	none
Cc1ccc2nc(C)c(C(=O)N/N=C/c3cccs3)cc2c1	KCNH2 3.1 block -149
CNc1nc(N/N=C/c2cc3c(cc2[N+](=O)[O-])OCO3)nc(Nc2ccccc2)n1	Rango complex inh 65µM (no result: hERG WT inh)
CNc1nc(N/N=C/c2cc([N+](=O)[O-])ccc2F)nc(Nc2ccccc2)n1	none
CCOc1ccc(NC(=O)C2CSC(c3ccncc3)=N2)cc1 (centres undefined)	hERG WT inh -120, Rango complex inh inconclusive, KCNH2 3.1 block -173
CCOc1ccc(NC(=O)Nc2ccc(Cc3ccncc3)cc2)cc1	none
COc1ccc(N(CC(=O)NCCSCc2ccccc2Cl)S(C)(=O)=O)cc1Cl	KCNH2 3.1 block -74
COc1ccc(C(CC(=O)O)NS(=O)(=O)c2ccc3c(c2)NC(=O)CO3)cc1 (centres undefined)	none
CC(C)(C)OC(=O)NCc1ccc(CNC(=O)c2[nH]cnc2C(=O)NC2CCN(C(=O)OC(C)(C)C)CC2)cc1	none (no result: hERG WT inh, KCNH2 3.1 block)
COc1ccc(CCN(C)C(=O)CCNS(=O)(=O)c2ccccc2C(F)(F)F)cc1OC	none
Cc1ccc(C(=O)N/C(=C\c2ccc(-c3cc(Cl)ccc3Cl)o2)C(=O)NCc2cccnc2)cc1	Rango dissoc inh 10µM, Rango complex inh inconclusive
O=C(NCc1cccnc1)/C(=C/c1ccc(-c2cccc(Cl)c2)o1)S(=O)(=O)c1ccccc1	none
O=C(CSc1nnc(CNC(=O)c2cccs2)o1)Nc1ccccc1F	none
C[C@H](CO)N1C[C@H](C)[C@@H](CN(C)C(=O)Nc2ccccc2)Oc2ccc(NC(=O)Nc3ccc4c(c3)OCO4)cc2C1=O	KCNH2 3.1 block -120
C[C@H](CO)N1C[C@H](C)[C@@H](CN(C)S(=O)(=O)c2cccs2)Oc2ccc(NC(=O)NC3CCCCC3)cc2C1=O	none
C[C@@H]1CCCCO[C@H](CN(C)S(=O)(=O)c2cccs2)[C@H](C)CN([C@@H](C)CO)C(=O)c2cc(NC(=O)NC3CCCCC3)ccc2O1	KCNH2 3.1 block -99 (no result: Rango dissoc inh, Rango complex inh)
Cc1ccc(C(=O)N[C@H](C(=O)NC2CCCCCCC2)C(C)C)cc1	none
Cn1c(=O)[nH]c(=O)c2c1nc(N1CCN(CCO)CC1)n2Cc1ccccc1	none
O=C(NC1CC1)C1CC(=O)N(c2cccc(Cl)c2)C1 (centres undefined)	none
CN1/C(=C/c2cccc[n+]2C)Sc2ccccc21	Rango dissoc inh 12µM, Rango complex inh inconclusive
O=C(Nc1cccc(-c2cccc(F)c2)c1)C1CCN(C2CCC2)CC1	hERG WT inh -97, KCNH2 3.1 block -91
O=C(Nc1cccc(-c2cccc(Cl)c2)c1)C1CCN(CC2CCOC2)CC1 (centres undefined)	KCNH2 3.1 block inconclusive
O=C(Nc1cccc(-c2cccc(F)c2)c1)C1CCN(CC2CCOC2)CC1 (centres undefined)	KCNH2 3.1 block -79
CCN(CC(=O)NC(C)(C)C)C(=O)c1cccc(S(=O)(=O)N2CC3(C)CC2CC(C)(C)C3)c1 (centres undefined)	none (no result: Rango dissoc inh, Rango complex inh)
Fc1ccc(-n2cc(CNCCc3ccccn3)c(-c3ccccc3Cl)n2)cc1	KCNH2 3.1 block -115
CCC(C)c1ccc(NC(=O)C2=CC=CN3CCS(=O)(=O)N=C23)cc1 (centres undefined)	none
COc1cc2c(C)nc3c(c(C)nn3-c3ccccc3)c2cc1OC	KCNH2 3.1 block -81
COc1cc2c(-c3ccc(O)cc3)nc3c(c(C)nn3-c3ccccc3)c2cc1OC	none
Brc1ccc(CN2C3=NCCCN3c3ccccc32)cc1	KCNH2 3.1 block -75
CCCCCCCN1C2=NCCCN2c2ccccc21	KCNH2 3.1 block -80
Clc1cccc(CN2C3=NCCCN3c3ccccc32)c1	KCNH2 3.1 block inconclusive
O=C(CN1C2=NCCCN2c2ccccc21)c1ccc(Br)s1	KCNH2 3.1 block -86
Clc1ccc(CN2C3=NCCCN3c3ccccc32)c(Cl)c1	KCNH2 3.1 block -94
CN1C/C(=C/c2ccccc2[N+](=O)[O-])C(=O)/C(=C\c2ccccc2[N+](=O)[O-])C1	Rango complex inh inconclusive
COc1ccc2cc([C@H](C)C(=O)N(C)Cc3ccccc3N3CCCC3)ccc2c1	none
CC(C)(C)c1ccc(CN2C3=NCCCN3c3ccccc32)cc1	KCNH2 3.1 block -80
Cc1ccc(CN2C3=NCCCN3c3ccccc32)cc1	none
CC1(C)CC(=O)CC(=NCC(=O)O)C1	Rango dissoc inh 26µM, Rango complex inh inconclusive
N#CC(=C(c1ccccc1)c1ccccc1)c1ccccc1	KCNH2 3.1 block inconclusive
Fc1cccc2sc(Nc3nnc(-c4ccccc4)o3)nc12	hERG WT inh -149
COc1cc(OC)cc(-c2nnc(Nc3nc4c(F)cccc4s3)o2)c1	none
CCOC(=O)N1CCN(C(=O)c2cnc(Nc3ccccc3OC)c3ccccc23)CC1	KCNH2 3.1 block -193
CCCC(c1nnnn1CS(=O)(=O)c1ccc(C)cc1)N1CCC(C(N)=O)CC1 (centres undefined)	none
O=C(/C=C/c1ccccc1)CC(=O)c1ccccc1	KCNH2 3.1 block -86
CCC(CC)C(=O)Nc1c2c(nn1-c1ccc(OC)cc1)CS(=O)(=O)C2	none
CCC(CC)C(=O)Nc1c2c(nn1-c1ccc(F)cc1)CS(=O)(=O)C2	Rango complex inh inconclusive, KCNH2 3.1 block -81
COc1ccc(CN2C(=O)C(CC(=O)NCc3cccs3)CC(C(=O)N3CCOCC3)=C2C)cc1 (centres undefined)	none (no result: Rango dissoc inh, Rango complex inh)
NS(=O)(=O)c1cc2c(cc1Cl)NC(CC1CCCC1)NS2(=O)=O (centres undefined)	Rango complex inh 58µM
COc1ccc(N2C(=O)/C(=C/c3cccs3)NC2=S)cc1	Rango dissoc inh 16µM[inhibitor], Rango complex inh inconclusive
O=c1cc(-c2cccc(F)c2)[nH]c2ccccc12	KCNH2 3.1 block -71
Cc1ccc(-c2cc(=O)c3cc(F)ccc3[nH]2)cc1	none
Cc1ccc2[nH]c(-c3cccc(F)c3)cc(=O)c2c1	none
O=c1cc(-c2ccccc2)[nH]c2ccc(F)cc12	KCNH2 3.1 block -98

Screening data as filed in PubChem.
